This passage reports Ki and inhibition mechanism results from article PMC11157048 (Frontiers in Pharmacology, 2024).

Assay [1] concerns the target rat liver microsomes (RLM). As to the kind of experiment: Inhibition of aumolertinib metabolism in rat liver microsomes (screen, IC50, Ki). The following applies: Lineweaver-Burk secondary plot.
The test system of assay [2] is human liver microsomes (HLM). Kind of assay: Inhibition of aumolertinib metabolism in human liver microsomes (IC50, Ki). It is filed as in vitro ADME. For orientation: Liver microsomes are vesicles of endoplasmic reticulum, rich in cytochrome P450 enzymes.

What is called Ki is the equilibrium dissociation constant of an inhibitor or competing ligand from its target. Read a high Ki as a looser hold on the target. With `CCCc1nc2c(C)cc(-c3nc4ccccc4n3C)cc2n1Cc1ccc(-c2ccccc2C(=O)O)cc1` [Telmisartan], the inhibition constant (Ki) in assay [1] is 13.5 µM; in assay [2] (Lineweaver-Burk secondary plot), 77.2 µM. For the same compound, in assay [2], the inhibition mechanism result was “mixed (non-competitive and uncompetitive)”.
